From US4564624A, “8-(Substituted N-phenylcarboxamidomethyl) pyrrolizidines and use thereof as antiarrhythmics” (Suntory Ltd., priority 1982, dated 1986) come the findings set out here.

Series [1] has as its system ventricular arrhythmias induced by chloroform. The experiment in a line: Antiarrhythmic activity: prevention of chloroform-induced ventricular flutter and fibrillation in mice. Particulars: ratio of LD50 and ED50. The procedure:
At the time when they ceased to breathe, electrocardiogram of each animal was recorded to observe the flutter and fibrillation of the ventricle.
The abnormalities of ventriculus as observed in these animals can be prevented by previous administration of a substance showing antiarrhythmic activity. A compound of this invention, at various dosages, was subcutaneously injected to mice grouped by 29-40 heads. Thirty minutes later these mice were treated with chloroform to induce arrhythmias. Prophylaxis percentages of the flutter and fibrillation of ventricle for each dosage were calculated.

The next series deals with ddY strain male mice. The series is classed as in vivo. Particulars: 18-22 g, up and down method.

In general, LD50 refers to the dose at which mortality reaches 50%. Low values mean greater toxicity, high ones lower toxicity.

The structures appear in SMILES notation.

Turning to `Cc1cccc(C)c1NC(=O)CC12CCCN1CCC2` [Compound 12, N-(2,6-dimethylphenyl)-8-pyrrolizidineacetaminde], the Therapeutic index in series [1] worked out at 17.08. In addition, the 50% lethal dose (LD50) in the series on ddY strain male mice worked out at 410 mg/kg.
